Tested on: MCF-7K, T47D, ZR-75-1, GH1, GH3, GH4C1, MTW9/PL2 and H301 cells
Assay: CA-PS-pool II with eight ER^+ cell lines in serum-free defined media ± E2
Assay type: cell-based
Settings: 5 mg/mL
Method: Effects of CA-PS-pool II on ER^+ Cell Growth in Serum-free Defined Medium. […] The activity was not replaced by serum albumin at 5 mg/mL (data not shown). The estrogen mitogenic effects seen in defined medium containing only a few μg/mL of protein were equal to or greater than those seen in medium containing 30 to 50% (v/v) CDE-horse serum with every ER^+ cell line tested (TABLE 10).

serum albumin: serum albumin at 5 mg/mL, species not stated
replacement of the inhibitor activity: not replaced

Reference: patent US7947275B2 (Signe Biopharma, Inc., priority 2000, dated 2011)
